These results are taken from ChEMBL document CHEMBL1145380, “Optimization of 1,3,4-benzotriazepine-based CCK(2) antagonists to obtain potent, orally active inhibitors of gastrin-mediated gastric acid secretion” (J Med Chem, 2007).

The target in the test is T1, Gastrin/cholecystokinin type B receptor (Rattus norvegicus, UniProt P30553).
T1 sequence (P30553 whole entry): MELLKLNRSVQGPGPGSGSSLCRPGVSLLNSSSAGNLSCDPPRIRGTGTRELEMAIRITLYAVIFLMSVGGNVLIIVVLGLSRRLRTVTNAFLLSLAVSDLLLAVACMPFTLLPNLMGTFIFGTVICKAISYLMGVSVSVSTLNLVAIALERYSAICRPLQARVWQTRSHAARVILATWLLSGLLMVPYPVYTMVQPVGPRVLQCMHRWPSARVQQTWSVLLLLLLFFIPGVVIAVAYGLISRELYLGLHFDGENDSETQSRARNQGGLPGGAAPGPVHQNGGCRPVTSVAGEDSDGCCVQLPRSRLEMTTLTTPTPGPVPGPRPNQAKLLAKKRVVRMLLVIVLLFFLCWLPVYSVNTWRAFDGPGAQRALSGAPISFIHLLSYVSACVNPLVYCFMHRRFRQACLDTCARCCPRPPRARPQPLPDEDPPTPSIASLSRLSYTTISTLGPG
Kind of test: Antagonist activity at CCK2 receptor in perfused rat stomach assessed as inhibition of pentagastrin-stimulated gastric acid secretion. It counts as functional, tissue-based. To be noted: read-out: pA2 (converted).

Turning to `Cc1ccccc1C(=O)CN1C(=O)N(CC(=O)Nc2cccc(C(=O)O)c2)N=C(C2CCCCC2)c2ccccc21`, the Kb is 7.59 nM.
